The source of these data is PubChem BioAssay AID624040 (The Scripps Research Institute Molecular Screening Center, 2012).

Amino acid sequences for entries named in this document (tags omitted).
UniProt P08912, whole entry: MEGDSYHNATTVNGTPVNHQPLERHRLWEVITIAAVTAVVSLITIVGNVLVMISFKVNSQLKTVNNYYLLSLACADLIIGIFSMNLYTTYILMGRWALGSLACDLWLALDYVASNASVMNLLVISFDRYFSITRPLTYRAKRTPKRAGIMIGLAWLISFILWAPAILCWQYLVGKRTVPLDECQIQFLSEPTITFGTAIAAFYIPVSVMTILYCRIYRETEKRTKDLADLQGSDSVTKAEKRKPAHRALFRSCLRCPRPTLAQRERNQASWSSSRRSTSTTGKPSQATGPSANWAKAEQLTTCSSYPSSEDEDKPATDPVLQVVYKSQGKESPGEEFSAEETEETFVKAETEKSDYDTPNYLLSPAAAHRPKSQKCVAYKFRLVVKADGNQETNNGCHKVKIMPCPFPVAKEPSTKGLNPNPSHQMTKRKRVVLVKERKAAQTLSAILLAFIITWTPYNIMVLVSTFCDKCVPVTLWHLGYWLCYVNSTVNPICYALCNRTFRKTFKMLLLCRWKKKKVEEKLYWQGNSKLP

Only a part is listed here, and it is no random draw. Some of these compounds have results that are not shown, active ones among them. Activity calls are given as the source filed them.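 Rule for the calls: active = inhibition above a per-plate cutoff, the mean of that plate's test compounds plus 3 SD (cut at about 27% in these data); inactive = the rest.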

In this assay the target is Muscarinic acetylcholine receptor M5 (Homo sapiens) (UniProt P08912). As to the kind of experiment: CHRM5 blockers of acetylcholine calcium response – CHO cells, Fluo-8 calcium fluorescence, primary screen (AID 624040).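 Note: 0% = acetylcholine EC80 with DMSO and 100% = DMSO without agonist.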 As to conditions: CHO-hM5 cells, ACh EC80, at 3 µM, stronger effect = higher value.
With `Cc1ccccc1C(=O)NCC1(N2CCCCC2)CCCCC1`, the inhibition was inactive: 1.54%.
As to `CN(C)c1ccc(C(=O)NCC2(N(C)C)CCCCC2)cc1`, the inhibition is inactive: -2.22%.
Take `Cc1cc(C(=O)NCC2(N3CCCCC3)CCCCC2)ccc1[N+](=O)[O-]`: the inhibition is inactive: 6.34%.
Take `O=C(NCC1(N2CCCCC2)CCCCC1)c1cccc(Br)c1`: the inhibition was inactive: 9.2%.
`COc1ccc(C(=O)NCC2(N(C)C)CCCCC2)cc1`: the inhibition was inactive: 2.48%.
`O=C(NCC1(N2CCCCC2)CCCCC1)c1cc(F)c(F)cc1Cl`: the inhibition is inactive: 9.54%.
As for `O=C(NCC1(N2CCCCC2)CCCCC1)c1cc([N+](=O)[O-])ccc1Cl`, the inhibition was inactive: 10.4%.
Take `Cc1ccc(C(=O)NCC2(N3CCCCC3)CCCCC2)cc1`: the inhibition is inactive: -4.17%.
On to `CC(C)N1C(=O)CC2(CCN(CCOC(=O)C(O)(c3ccccc3)c3ccccc3)CC2)C1=O`, for which the inhibition was inactive: 2.86%.
Then `COc1cc(SC)ccc1C(=O)NCC1(N(C)C)CCCCC1`, with inactive: 5.91%; and `CN(C)c1cccc(C(=O)NCC2(N(C)C)CCCCC2)c1`, with inactive: -12.3%; and `CC(C)Oc1ccc(C(=O)NCC2(N(C)C)CCCCC2)cc1`, with inactive: 7.15%.
As for `COc1ccc(Br)c(C(=O)NCC2(N3CCCCC3)CCCCC2)c1`, the inhibition is inactive: -2.22%.
As to `COc1cc(C(=O)NCC2(N(C)C)CCCCC2)c([N+](=O)[O-])cc1OC`, the inhibition was inactive: -4.65%.
Then `CN(C)C1(CNC(=O)c2ccc(Br)cc2)CCCCC1`, with inactive: 1.48%; and `O=C(NCC1(N2CCCCC2)CCCCC1)c1cccc(Cl)c1`, with inactive: 4.18%; and `COc1cccc(C(=O)NCC2(N3CCCCC3)CCCCC2)c1`, with inactive: -2.66%.
Then `COc1ccc(Cl)cc1C(=O)NCC1(N(C)C)CCCCC1`, with inactive: 14%.
